# Measured values from patent US20060241067A1, “Methods For inhibiting angiogenesis, cell migration, cell adhesion, and cell survival” (priority 2002, published 2006).
# System: chick chorioallantoic membrane (CAM)
# Assay: Chick chorioallantoic membrane (CAM) angiogenesis assay
# Assay type: in vivo, chicken
substance,measurement,setting,value
"CGRP: calcitonin gene related peptide, a vasodilatory peptide hormone (ACDTATCVTHRLAGLLSRSGGVVKNNFVPTNVGSKAF; Calcitonin gene-related peptide 1; UniProt P06881 83-119, looked up)","angiogenesis (blood vessel branch points, vessel density)","bFGF stimulated CAMs, 1 μM peptide",Only PTHrP inhibited angiogenesis
same,"pre-existing vessels (number, size, composition)",saline-stimulated CAMs,"no effect on the number, size or composition of pre-existing vessels"
